# Measurements as given in PubChem BioAssay AID1274 (Emory University Molecular Libraries Screening Center, 2008).
# Protein sequences, listed by entry. Tags and fused reporters are not part of them.
# UniProt P14598, whole entry: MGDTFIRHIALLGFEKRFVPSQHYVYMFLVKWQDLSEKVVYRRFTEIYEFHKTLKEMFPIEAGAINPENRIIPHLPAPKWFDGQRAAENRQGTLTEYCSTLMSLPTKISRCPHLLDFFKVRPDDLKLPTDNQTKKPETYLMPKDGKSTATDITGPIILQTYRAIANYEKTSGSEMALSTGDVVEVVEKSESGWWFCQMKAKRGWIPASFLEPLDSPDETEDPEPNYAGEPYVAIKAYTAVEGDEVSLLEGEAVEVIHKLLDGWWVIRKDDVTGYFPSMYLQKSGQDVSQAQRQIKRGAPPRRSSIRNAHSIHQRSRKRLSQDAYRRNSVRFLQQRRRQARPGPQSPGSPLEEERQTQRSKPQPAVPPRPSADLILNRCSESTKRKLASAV
# Only a part is listed here, and it is no random draw. Some results for these compounds are left out of this collection, so the calls shown say nothing about other tests. Activity calls are given as the source filed them.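 Rule for the calls: active = inhibition above about 30% (limit read from the data); inactive = the rest.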
# Target: Neutrophil cytosol factor 1 (Homo sapiens) (UniProt P14598)
# Assay: p47phox/p22phox peptide binding inhibitors, primary screen, biochemical, uHTS, NADPH oxidase regulatory subunit (AID 1274);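 note: 0% = p47phox with labelled peptide and 100% = labelled peptide alone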
# Details: fluorescence polarization, 2 h, at 24.7 µM, hits give high values
row,SMILES,inhibition
1,COc1cccc(C(=O)NCC2(N3CCCCC3)CCCCC2)c1,inactive: -6.68%
2,O=C(OC1CN2CCC1CC2)C(CO)(c1ccccc1)c1ccccc1 (stereo unspecified),inactive: -14.3%
3,CN(C)c1cccc(C(=O)NCC2(N(C)C)CCCCC2)c1,inactive: -2.7%
4,COc1ccc(Br)c(C(=O)NCC2(N3CCCCC3)CCCCC2)c1,inactive: -93.1%
5,O=C(NCC1(N2CCCCC2)CCCCC1)c1cc([N+](=O)[O-])ccc1Cl,inactive: -0.17%
6,CC(C)N1C(=O)CC2(CCN(CCOC(=O)C(O)(c3ccccc3)c3ccccc3)CC2)C1=O,inactive: 3.37%
7,CCN(CC)CC(C)C(C)OC(=O)C(O)(c1ccccc1)c1ccccc1 (stereo unspecified),inactive: -7.59%
8,Cc1ccccc1C(=O)NCC1(N2CCCCC2)CCCCC1,inactive: -42.2%
9,CN(C)C1CCCC1OC(=O)C(O)(c1ccccc1)c1ccccc1 (stereo unspecified),inactive: -11.5%
10,CCN1CCCC(OC(=O)C2(O)c3ccccc3C=Cc3ccccc32)C1 (stereo unspecified),inactive: -2.58%
11,C=CCN1CCN(CCOC(=O)C(O)(c2ccccc2)c2ccccc2)CC1,inactive: 0.77%
